The record followed here is patent publication US8361796B2, “Method for generating primate cardiovascular progenitor cells for clinical use from primate embryonic stem cells or embryonic-like state cells, and their applications” (Assistance Publique—Hopitaux de Paris, priority 2008, dated 2013).

The subject of this test is HUES-1 cells embryoid bodies (EBs). As to the kind of experiment: Gene expression in embryoid bodies from BMP2-challenged HUES-1 cells. The test is classed as cell-based, human. From the text:
To test whether BMP2-induced HES cell commitment was translated into a process of cardiac differentiation and to envision the differentiation scenario that might take place in vivo, control or BMP2-challenged HUES-1 cells were allowed to aggregate to form embryoid bodies (EBs). Gene expression was then monitored in day 2 and day 5 EBs. […] Similar results were obtained using I6 cell line.

B1: BMP2: Human recombinant BMP2, cardiogenic morphogen (protein, UniProt P12643 283-396, looked up)
Bone morphogenetic protein 2: QAKHKQRKRLKSSCKRHPLYVDFSDVGWNDWIVAPPGYHAFYCHGECPFPLADHLNSTNHAIVQTLVNSVNSKIPKACCVPTELSAISMLYLDENEKVVLKNYQDMVVEGCGCR
As to B1, the “induction in gene expression in EBs” value (day 2 EBs, cells pretreated with BMP2) was “two fold induction”. Besides, the “Oct-4 expression in EBs” value (day 5 EBs generated from BMP2-treated ES cells) was “downregulated and almost absent”. Also, the “increase of expression of mesodermal and cardiac genes in EBs” value (day 5 EBs, cells pretreated with BMP2) lay in the range of 3 to 10 folds.
